Assays:
Assay type in all cases: in vivo
Radopholus similis = Radopholus similis test (soil application); conditions: application rate 2 ppm in soil; banana seedling; after 2 weeks
Method: Radopholus similis—Test (Soil Application)
(§1) Solvent: 4 parts by weight acetone
(§2) Emulsifier: 1 part by weight alkylaryl polyglycol ether
To produce a suitable preparation of active compound, 1 part by weight of active compound is mixed with solvent and emulsifier at the ratio 4:1 and is diluted with water to the desired concentration.
This compound solution is mixed with soil. The stated concentration refers to the amount of compound per unit of volume soil (mg/1=ppm). The treated soil is filled into 250 ml pots and a banana seedling is planted. Afterwards 2.5 ml of a nematode suspension (500 Radopholus similis/ml) are applied.
After 2 weeks the number of nematodes in the banana roots is determined by means of maceration. The roots are cut off, cleaned with water and after adding 25-40 ml 0.01% lactic acid—acid fuchsin solution they are boiled in a microwave. On the next day the roots are rinsed over a 0.025 mm-nematode sieve, roughly minced and macerated with 15-20 ml water in an Ultra Turrax. After filling up with water to 45 ml, the number of nematodes in the supernatant is determined microscopically with a counting chamber.
The average number of nematodes per pot is determined and efficieny is calculated by using Abbott's formula:
(§3) C=untreated control plants

Meloidogyne incognita = Meloidogyne incognita in tomato test (MELGIN soil application); conditions: application rate 2 ppm in soil; tomato seedling (Solanum lycopersicum); after five weeks
Method: Meloidogyne incognita in Tomato—Test (MELGIN Soil Application)
as §1, §2
(§4) To produce a suitable preparation of active compound, 1 part by weight of active compound is mixed with solvent and emulsifier at the ratio 4:1 and is diluted with water to the desired concentration. The stated concentration refers to the amount of compound per unit of volume soil (mg/1=ppm).
This compound composition is mixed with 500 ml of soil and 4 ml of a nematode suspension (1000 differenciated eggs and larvae of Meloidogyne incognita/ml). The stated concentration refers to the amount of compound per unit of volume soil (mg/1=ppm). The treated soil is filled in 500 ml pots and a tomato seedling (Solanum lycopersicum) is planted.
After five weeks the average number of galls in the tomato roots per pot are determined and efficieny is calculated by using Abbott's formula:
as §3

Globodera rostochiensis = Globodera rostochiensis test (soil application); conditions: application rate 2 ppm in soil; potato seedling; after six weeks
Method: Globodera rostochiensis—Test (Soil Application)
as §1, §2
as §4, with “concentration. This compound composition is mixed with soil.” for “concentration.”
450 ml of this compound composition is mixed with 50 ml of soil infected with Globodera rostochiensis (20.000 nematodes/100 ml), filled in 500 ml pots and a potato seedling is planted.
After six weeks the average number of cysts in the potato roots per pot are determined and efficieny is calculated by using Abbott's formula:
as §3

O=C(Nc1ccn(-c2ncc(F)cc2F)n1)c1ccccc1C(F)(F)F [Compound I-1-140, N-[1-(3,5-difluoropyridin-2-yl)-1H-pyrazol-3-yl]-2-(trifluoromethyl)benzamide]
100%: activity (efficiency by Abbott's formula, number of nematodes in banana roots) (Radopholus similis) | activity (efficiency by Abbott's formula, number of galls in tomato roots) (Meloidogyne incognita) | activity (efficiency by Abbott's formula, number of cysts in potato roots) (Globodera rostochiensis)
